Laboratory results taken from patent US20080195024A1, “Treating Disorders Associated with Inflammation” (priority 2005, published 2008).

Target: chymotrypsin (Bos taurus, UniProt P00766)
Conditions: 1 mM PMSF added before or after 6 hours digestion by chymotrypsin at 37° C.

O=S(=O)(F)Cc1ccccc1 [PMSF, phenylmethylsulfonyl fluoride]
protease activity of the digested homogenate: inhibited the protease activity
